Biological target: T1, usual BChE (Homo sapiens, UniProt P06276)
T1 construct: Human native serum was used as a source of BChE; from tissue; host or cells: human serum (donor, IMROH Zagreb)
Type: biochemical
Description: ATCh was used as a substrate for AChE and PTCh as a substrate for BChE. The reaction mixture contained DTNB (final concentration 0.3 mM), buffer, enzyme suspension, inhibitor (0.5–10 mM) and ATCh or PTCh (0.025–1.0 mM). Inhibition of enzymes was determined by measuring the decrease in enzyme activity in the presence of inhibitors.
The dissociation constant for an enzyme–inhibitor complex K(I) was evaluated from the impact of substrate concentrations [S] on the degree of inhibition applying the Hunter–Downs equation[17]^,[39]: Ki,app=vi/v0-vi·[I]=K(I)+K(I)/K(S)·[S] where Ki,app is an apparent enzyme-reversible inhibitor complex dissociation constant obtained at a given substrate concentration [S] in the presence of inhibitor concentration [I] and calculated from the enzyme activities v0 and vi measured without inhibitor and in the presence of inhibitor concentration [I], respectively. K(I) is the enzyme-reversible inhibitor complex dissociation constant and can stand for a complex formed at the catalytic site or for a complex formed at the peripheral site of the enzyme. K(S) is the enzyme-substrate dissociation constant that could be approximated to the Michaelis constant or to the enzyme-substrate dissociation constant when two molecules of the substrate are bound to the enzyme.

Protein sequences, listed by entry. Tags and fused reporters are not part of them. Residues count along the entry.
UniProt P06276, 29-602: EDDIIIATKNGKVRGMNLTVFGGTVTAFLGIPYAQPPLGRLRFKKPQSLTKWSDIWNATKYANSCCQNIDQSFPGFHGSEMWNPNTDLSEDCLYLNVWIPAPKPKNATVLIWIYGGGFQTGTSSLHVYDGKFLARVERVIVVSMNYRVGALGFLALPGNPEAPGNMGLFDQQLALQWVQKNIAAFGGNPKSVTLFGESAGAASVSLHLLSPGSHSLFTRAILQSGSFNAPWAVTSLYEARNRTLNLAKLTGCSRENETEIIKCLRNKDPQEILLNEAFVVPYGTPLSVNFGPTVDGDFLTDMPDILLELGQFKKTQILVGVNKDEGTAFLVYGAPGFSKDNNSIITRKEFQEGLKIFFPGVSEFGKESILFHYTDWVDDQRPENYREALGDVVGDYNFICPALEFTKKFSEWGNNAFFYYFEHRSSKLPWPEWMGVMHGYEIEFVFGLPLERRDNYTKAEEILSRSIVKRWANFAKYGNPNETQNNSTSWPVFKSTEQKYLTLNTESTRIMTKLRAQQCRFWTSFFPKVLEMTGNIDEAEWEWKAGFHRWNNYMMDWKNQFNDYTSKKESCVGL

## CC(Cc1ccc(O)cc1)NCC(O)c1cc(O)cc(O)c1 (stereo not shown) [Fenoterol]
  selectivity: inhibition of usual BChE more potent than AChE (ratio of K(I) constants): 36 times

Reference: paper PMC6445159, “Resorcinol-, catechol- and saligenin-based bronchodilating β2-agonists as inhibitors of human cholinesterase activity” (Journal of Enzyme Inhibition and Medicinal Chemistry, 2017)
